## scFv variants of Ab-91 (heavy chain) against a SARS-CoV-2 spike peptide

Source: Engelhart et al. 2022 (doi:10.1038/s41597-022-01779-4), MIT Lincoln Laboratory and A-Alpha Bio; data file from the FLAb repository.

Target: peptide PDVDLGDISGINAS, taken from heptad repeat 2 (HR2) of SARS-CoV-2 spike.

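Phage display of a naive human antibody library on the peptide gave the parent. In library AAYL51, one, two or three CDR residues were substituted; doubles and triples were drawn at random. AlphaSeq pools MATa yeast showing the antibodies with MATalpha yeast showing the peptide. Pairs that bind mate more often; barcode pairs of the diploids are counted by sequencing. Scores were corrected for input abundance and mapped to Kd with protein pairs of known affinity run in the same pool. There are three technical replicates.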

The variants keep the light chain, the linker and the frameworks of Ab-91 (scFv order VL, the linker GGGGSGGGGSGGGGS, VH).
VL: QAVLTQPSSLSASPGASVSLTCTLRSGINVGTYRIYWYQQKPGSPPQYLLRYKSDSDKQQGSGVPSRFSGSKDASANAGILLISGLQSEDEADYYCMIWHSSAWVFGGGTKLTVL
VH: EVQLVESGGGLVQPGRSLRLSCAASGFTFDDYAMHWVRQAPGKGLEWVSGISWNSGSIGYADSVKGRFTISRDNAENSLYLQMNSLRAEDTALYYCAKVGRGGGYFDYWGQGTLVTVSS

Changes read parent residue, position, new residue, counted from the first residue of the VH shown. Every variant below is changed at G103 of the VH (sequential numbering). Values are apparent Kd, the geometric mean of the replicates that gave a signal; lower means stronger binding. "nd" marks a missing value. The strain was present, yet no cells mated with the target were sequenced in any replicate, which points to weak or no binding. Parent in this assay: reference entry 72 nM, copy in this library 7.5 nM.

* W53G R101Y G103Y -> nd (0 of 3 replicates)
* G59D G102P G103E -> nd (0 of 3 replicates)
* A33M A61P G103T -> nd (0 of 3 replicates)
* W53S I58Y G103W -> nd (0 of 3 replicates)
* G103S Y108D -> nd (0 of 3 replicates)
* F29W I51M G103P -> 72 µM (2 of 3 replicates)
* G26I S55W G103V -> nd (0 of 3 replicates)
* G103I G104W Y108T -> 37 µM (2 of 3 replicates)
* S52R R101K G103D -> 24 µM (1 of 3 replicates)
* I58T G103R Y105E -> 87 µM (3 of 3 replicates)
* I58R G103H Y108S -> 21 µM (3 of 3 replicates)
* R101I G103F D107G -> nd (0 of 3 replicates)
* F27D V99Q G103C -> 9.6 µM (1 of 3 replicates)
* G100E G103S F106W -> 140 nM (3 of 3 replicates)
* D31P D62M G103F -> 240 µM (1 of 3 replicates)
* D31M I51C G103Q -> nd (0 of 3 replicates)
* D30Y M34V G103P -> 55 µM (2 of 3 replicates)
* W53M Y60G G103H -> 34 µM (1 of 3 replicates)
* G102C G103Y Y105G -> 10 nM (3 of 3 replicates)
* G26E Y60Q G103V -> 56 µM (1 of 3 replicates)
* T28M K65S G103Y -> 29 µM (1 of 3 replicates)
* F29Q D30M G103D -> nd (0 of 3 replicates)
* V64H G103S G104W -> 40 µM (2 of 3 replicates)
* F27N G103W Y108I -> nd (0 of 3 replicates)
* S57A G103R Y105L -> 28 µM (1 of 3 replicates)
* G50I S63F G103W -> nd (0 of 3 replicates)
* T28Y G59D G103Q -> nd (0 of 3 replicates)
* G100D R101S G103P -> 100 µM (2 of 3 replicates)
* G103Q -> 8.6 µM (1 of 3 replicates)
* Y60V A61S G103E -> nd (0 of 3 replicates)
* A61N G103W Y105L -> 97 µM (1 of 3 replicates)
* G103D -> 3.5 µM (1 of 3 replicates)
* Y32P I58H G103R -> 1.4 µM (1 of 3 replicates)
* S52R S55N G103A -> 240 µM (2 of 3 replicates)
* D30F A33E G103I -> nd (0 of 3 replicates)
* V99P G103W Y105M -> 2.1 µM (1 of 3 replicates)
* T28H K65F G103R -> nd (0 of 3 replicates)
* I51E D62K G103I -> nd (0 of 3 replicates)
* F29M H35N G103D -> 21 µM (3 of 3 replicates)

6 of these entries, quoted again:

- F29Q D30M G103D: nd (0 of 3 replicates)
- T28Y G59D G103Q: nd (0 of 3 replicates)
- D30Y M34V G103P: 55 µM (2 of 3 replicates)
- F27D V99Q G103C: 9.6 µM (1 of 3 replicates)
- S52R R101K G103D: 24 µM (1 of 3 replicates)
- A61N G103W Y105L: 97 µM (1 of 3 replicates)

As a blank, each scFv also met three strains without target: over library AAYL51, 21% of these pairings were detected, typically at 34 µM and seldom below 1.8 µM.